The list shows a part of the results, in another mix than the full data. Potency and affinity values are given separately. Active and inactive are the calls of the source. Cut-off read from the data, not from the text of the source: active = activation above about 50% (passing the limit was not always enough); inactive = the rest.

Chains of the proteins cited; added tags and fusions are not shown.
UniProt P41145, whole entry: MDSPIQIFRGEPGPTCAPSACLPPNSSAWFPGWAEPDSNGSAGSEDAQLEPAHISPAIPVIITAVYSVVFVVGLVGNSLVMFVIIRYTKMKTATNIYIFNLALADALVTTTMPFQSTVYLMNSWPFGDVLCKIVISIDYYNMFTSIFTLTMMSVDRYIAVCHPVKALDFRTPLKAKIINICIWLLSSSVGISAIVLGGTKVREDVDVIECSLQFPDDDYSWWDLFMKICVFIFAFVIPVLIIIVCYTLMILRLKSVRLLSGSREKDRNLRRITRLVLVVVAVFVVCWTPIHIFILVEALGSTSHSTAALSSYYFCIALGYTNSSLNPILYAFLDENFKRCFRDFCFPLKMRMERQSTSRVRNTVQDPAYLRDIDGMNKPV

The test has as its target Kappa-type opioid receptor (Homo sapiens) (UniProt P41145). Description: kappa opioid receptor activators – cell-based, luminescence, uHTS, primary screen (AID 1777). To be noted: KOR beta-arrestin recruitment, at 10 µM, stronger effect = higher value. On the technique in general: Arrestin recruitment assays detect the binding of arrestin to an activated receptor.
With `COc1ccc(NC2CCN(CCc3ccccc3)CC2)c(OC)c1`, the activation is inactive: 4.5%. In the case of `O=C(NCC1(N2CCCCC2)CCCCC1)c1ccc(F)cc1` it was inactive: -0.1%; in that of `CCN1CCC(Nc2cccc(F)c2)CC1`, inactive: 0.2%; in that of `CN(C)c1ccc(C(=O)NCC2(N3CCCCC3)CCCCC2)cc1`, inactive: 0%.

`COc1cc(OC)cc(C(=O)NCC2(N3CCCCC3)CCCCC2)c1`: the activation was inactive: 1%. For the compound `Fc1ccccc1NC1CCN(Cc2ccccc2)CC1`, the activation is inactive: 0.7%. Turning to `CCC(CO)(C(=O)OC1CN2CCC1CC2)c1ccccc1` (stereo not given), the activation was inactive: 3%. In the case of `COc1cccc(C(=O)N(c2cc(C)cc(C)c2)C2CCN(C(=O)OC(C)(C)C)CC2)c1` it was inactive: 0.3%.

Consider `COc1cc(OC)cc(C(=O)NCC2(N3CCOCC3)CCCCC2)c1`, for which the activation is inactive: 2.5%. In the case of `CCCOc1ccc(C)cc1CN(CCCl)CCCl` it was inactive: 12.4%. In the case of `CN1CCC(Nc2ccc(Cl)cc2)CC1` it was inactive: 3.9%; in that of `CN1CCC(Nc2ccc(F)c(Cl)c2)CC1`, inactive: 0.4%. In the case of `CCOc1ncccc1C(=O)NCC1(N2CCOCC2)CCCCC1` it was inactive: -1.1%; in that of `CCCOc1ccc(C(=O)NCC2(N(C)C)CCCCC2)cc1`, inactive: -2.3%. For `O=C(O)C1(Nc2ccccc2)CCN(Cc2ccccc2)CC1`, the activation is inactive: -2%. In the case of `CC(C)(C)OC(=O)N1CCC(Nc2ccccc2)CC1` it was inactive: -3.4%; in that of `N/C(=N\O)c1c(N)no[n+]1[O-]`, inactive: -0.7%. In the case of `CCOC(=O)N1CCC(Nc2ccc(C)cc2)CC1` it was inactive: 6.3%. As for `O=C(OC1CN2CCC1CC2)C1c2ccccc2C=Cc2ccccc21` (stereo not given), the activation was inactive: 5.7%. In the case of `COc1ccc(C(=O)NCC2(N3CCOCC3)CCCCC2)cc1OC` it was inactive: -3.2%; in that of `CCCN1CCC(Nc2cc(OC)cc(OC)c2)CC1`, inactive: 1.9%; in that of `c1ccc(CN2CCC(Nc3ccccc3)CC2)cc1`, inactive: -0.9%. In the case of `CN(C)C1(CNC(=O)c2cccc(C#N)c2)CCCCC1` it was inactive: 0%. Consider `CC(C)(C)OC(=O)N1CCC(N(C(=O)c2ccccc2)c2ccc(Cl)cc2)CC1`, for which the activation was inactive: -1.9%.

In the case of `N#Cc1ccc(C(=O)NCC2(N3CCCCC3)CCCCC2)cc1`, the activation was inactive: 5.5%.
